Literature values, collected in paper PMC6692079 (Journal of medicinal chemistry, 2018).

Settings: rats; cited from earlier work

(3R)-7-hydroxy-N-[(1S)-1-[[(3R,4R)-4-(3-hydroxyphenyl)-3,4-dimethyl-1-piperidinyl]methyl]-2-methylbutyl]-1,2,3,4-tet- rahydro-3-isoquinoline-carboxamide [RTI-194]
AUClast, fold higher in brain than in plasma: approximately 10
